According to ChEMBL document CHEMBL1124680, “Cyclic enkephalin analogues containing alpha-amino-beta-mercapto-beta,beta-pentamethylenepropionic acid at positions 2 or 5” (J Med Chem, 1989):

Assay: Ratio of inhibition of electrically induced contractions in GPI and MVD

CC(C)C[C@H](NC(=O)[C@H](Cc1ccccc1)NC(=O)CNC(=O)CNC(=O)[C@@H](N)Cc1ccc(O)cc1)C(=O)O
Ratio: 21.6
